From patent publication US20120034163A1, “NON-INVASIVE TOOLS FOR DETECTING VULNERABLE ATHEROSCLEROTIC PLAQUES” (UNIVERSITE JOSEPH FOURIER, priority 2009, published 2012)

Experiment: Organ biodistribution of 99mTc-labelled tracers by gamma-well counting of excised organs
Details: 180 min following tracer injection; for Organ distribution, Aorta / Organ distribution, Blood / Organ distribution, Fat / Organ distribution, Kidney / Organ distribution, Liver / Organ distribution, Lung / Organ distribution, Skeletal muscle / Organ distribution, Spleen / Organ distribution, Heart: 99mTc-labelled tracer; for Organ distribution, Heart: lateral tail vein; for Organ distribution, Carotid artery, Right: contralateral control carotid; for Organ distribution, Carotid artery, Left: ligated left carotid (atherosclerotic lesion)

HGRENLRILARY [EP35]
Organ distribution, Aorta: 0.3 ± 0.0 | Organ distribution, Blood: 0.4 ± 0.0 | Organ distribution, Fat: 0.1 ± 0.0 | Organ distribution, Kidney: 23.6 ± 3.7 | Organ distribution, Liver: 2.8 ± 0.5 | Organ distribution, Lung: 0.4 ± 0.1 | Organ distribution, Skeletal muscle: 0.1 ± 0.0 | Organ distribution, Spleen: 0.4 ± 0.1 | Organ distribution, Heart: 0.5 ± 0.3 | Organ distribution, Carotid artery, Right: 0.4 ± 0.2 | Organ distribution, Carotid artery, Left: 0.1 ± 0.0

HGRENLRILARA [EP36]
Organ distribution, Aorta: 0.7 ± 0.2 | Organ distribution, Blood: 1.3 ± 0.3 | Organ distribution, Fat: 0.3 ± 0.1 | Organ distribution, Kidney: 33.1 ± 0.7 | Organ distribution, Liver: 4.2 ± 0.6 | Organ distribution, Lung: 0.9 ± 0.2 | Organ distribution, Skeletal muscle: 0.2 ± 0.1 | Organ distribution, Spleen: 0.8 ± 0.2 | Organ distribution, Heart: 0.4 ± 0.1 | Organ distribution, Carotid artery, Right: 0.4 ± 0.1 | Organ distribution, Carotid artery, Left: 0.5 ± 0.1

HGRENLRIAARY [EP38]
Organ distribution, Aorta: 0.7 ± 0.1 | Organ distribution, Blood: 1.2 ± 0.3 | Organ distribution, Fat: 0.2 ± 0.1 | Organ distribution, Kidney: 20.6 ± 10.8 | Organ distribution, Liver: 6.9 ± 1.6 | Organ distribution, Lung: 0.9 ± 0.1 | Organ distribution, Skeletal muscle: 0.2 ± 0.1 | Organ distribution, Spleen: 0.8 ± 0.2 | Organ distribution, Heart: 0.3 ± 0.1 | Organ distribution, Carotid artery, Right: 0.2 ± 0.1 | Organ distribution, Carotid artery, Left: 0.4 ± 0.1
